Measured values: ChEMBL document CHEMBL3739411, “Cytotoxic Illudane Sesquiterpenes from the Fungus Granulobasidium vellereum (Ellis and Cragin) Jülich” (J Nat Prod, 2015)

Experiments:
Huh-7 = assay: Cytotoxicity against human HuH7 cells assessed as viable cells after 6 days by XTT assay; type: functional
Summary of the method: (§1)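 Cells seeded at 2 × 10⁴ cells/well in 96-well plates; test substances added next day in duplicate. CC50 is the concentration giving 50% viability relative to untreated control cells. Positive control included.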

MT4 = assay: Cytotoxicity against human MT4 cells assessed as viable cells after 6 days by XTT assay; type: functional; summary of the method: as §1

## CC1=C2C(=CC(C)(C)[C@H]2O)[C@H](O)[C@@](C)(O)C12CC2
Huh-7
  CC50: 160 µM
MT4
  CC50: 45 µM
